# Binding of CDR-mutated scFvs to a peptide of the spike HR2 region

Values reported by Li et al. 2023, doi:10.1038/s41467-023-39022-2 (FLAb copy).

All variants were tested on one target, the spike HR2 peptide PDVDLGDISGINAS (SARS-CoV-2).

Parent: Ab-14, a human scFv built as VH, a (GGGGS)3 linker, VL. Only the CDRs of the light chain vary.
VH: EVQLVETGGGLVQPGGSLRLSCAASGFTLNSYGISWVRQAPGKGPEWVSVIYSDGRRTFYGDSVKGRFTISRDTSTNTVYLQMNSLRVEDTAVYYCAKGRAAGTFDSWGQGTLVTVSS
VL: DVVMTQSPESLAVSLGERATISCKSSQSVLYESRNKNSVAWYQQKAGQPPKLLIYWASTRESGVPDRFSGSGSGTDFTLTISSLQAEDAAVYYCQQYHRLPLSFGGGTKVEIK

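Phage display of a naive human antibody library on the peptide gave the parent. These sequences belong to a second round, designed from the earlier measurements on random variants of the parent. Several design methods are mixed in this list. AlphaSeq pools MATa yeast showing the antibodies with MATalpha yeast showing the peptide. Mating (16 h, 30 °C) was followed by selection of diploids and sequencing of their barcodes. Read counts were normalised to the haploid input and turned into Kd by a linear fit to BCL2-family pairs of known affinity, for each replicate. Mating was done six times.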

Changes read parent residue, position, new residue, counted from the first residue of the VL shown. This list holds designs with at most six substitutions. Affinities are written as log10 Kd with Kd in nM; a lower number is a better binder. Averages over replicates are reported, and they cover detected replicates only. An entry "nd" has no value in the source: the pair was not observed among the diploids in that replicate. This suggests poor binding but is not conclusive. The authors' rule: three or more of the six replicates give a measured affinity, fewer mean a poor binder.

changes,log10 Kd (nM) by replicate,"mean, log10 nM"
S26L+W56H+S62D+Q95P,nd / nd / nd / nd / nd / nd,nd
R34D+S62R+R99Q,1.07 / 1.42 / 1.12 / 0.72 / 0.92 / 2.17,1.23
S25L+S26E+L30G+W56N,0.52 / -0.26 / -0.11 / -0.32 / -0.30 / 1.11,0.11
S26E+Q27I+V29F+W56E,1.37 / 1.12 / nd / 1.94 / 0.60 / 0.86,1.18
S25L+L30H+S38N+W56N,0.14 / 0.11 / 0.13 / -0.06 / 0.16 / 0.38,0.14
V29L+Y31L+S58T+T59I,1.37 / 1.56 / 1.30 / 1.30 / 1.29 / 1.72,1.42
S25L+S26R+V29T+L30K+K36Q+W56A,0.23 / 0.18 / 0.27 / 0.03 / 0.32 / 0.19,0.20
N37Q+H98L,nd / 2.55 / 1.82 / 3.37 / nd / nd,2.58
S28A+Y31V+W56D,0.17 / 0.22 / 0.04 / -0.08 / 0.04 / 0.22,0.10
S25A+V29F+K36V+W56G,0.36 / 0.03 / 0.01 / -0.07 / -0.09 / 0.20,0.07
S25I+S26Y+V29G+L30P+W56S,0.64 / 0.42 / 1.01 / 0.13 / 0.44 / 0.62,0.54
Q27I+V29Q+Y31E+W56E+R99A,1.34 / 0.72 / 0.59 / 0.75 / 0.55 / 0.80,0.79
S25L+S26A+Q27G+V29Q+W56N+H98R,-0.17 / -0.01 / 0.26 / 0.86 / -0.56 / 0.28,0.11
S25L+A57D,0.91 / 0.98 / 0.82 / 0.63 / 0.90 / 1.73,0.99
L30W+W56H+R99D,1.75 / 2.28 / 2.30 / 2.02 / 2.52 / 1.97,2.14
V29W+W56D+T59V,0.15 / -0.14 / -0.20 / -0.64 / -0.30 / -0.25,-0.23
S25L+V29E+S33D+W56N+T59Q+E61M,-0.12 / -0.20 / -0.50 / -0.53 / -0.29 / -0.24,-0.31
S25L+L30G+E32Q+W56N+S62D,-0.02 / -0.01 / -0.13 / -0.26 / -0.32 / 0.07,-0.11
K36F+S62Y,1.82 / 1.70 / nd / 3.07 / 3.19 / nd,2.44
S25L+S26L+V29E+W56N+T59Q,0.15 / 0.03 / 0.01 / -0.05 / 0.00 / 0.19,0.05
S25V+S33W+W56D,-0.02 / -0.29 / -0.18 / -0.55 / -0.24 / -0.05,-0.22
S25F+V29Q+N35T+W56N+Q96W,0.38 / 0.09 / 0.15 / -0.19 / 0.55 / 0.31,0.22
S25M+V29M+N35A+K36F+W56N+T59N,0.97 / 0.73 / 0.82 / 0.74 / 0.66 / 0.88,0.80
S25Y+W56A+E61V,0.03 / 0.03 / -0.04 / 0.04 / -0.09 / 0.40,0.06
S25L+S26K+W56N,-0.01 / -0.04 / -0.21 / -0.25 / -0.22 / -0.08,-0.13
Q27F+W56K+Q96T,nd / 2.02 / nd / nd / 2.01 / nd,2.01
S25F+S28W+N35T+W56G,nd / nd / nd / nd / nd / nd,nd
S25L+S26G+S28G+S38H+W56G,0.07 / 0.07 / -0.16 / -0.29 / -0.19 / 0.09,-0.07
K24H+S25L+S33E+W56N,0.19 / -0.06 / -0.08 / -0.28 / -0.13 / 0.03,-0.05
S25V+V29D+S33D+W56N,0.05 / -0.07 / 0.02 / -0.03 / 0.31 / 0.36,0.11
S25L+Q27G+V29E+W56N,-0.19 / -0.06 / -0.26 / -0.44 / 0.12 / -0.15,-0.16
S25L+V29F+S33Q+W56E,0.03 / -0.35 / -0.27 / -0.26 / -0.41 / -0.20,-0.25
K36V,1.80 / 2.64 / 1.78 / 1.38 / 1.82 / 2.08,1.92

Extract of 5 entries:

changes,log10 Kd (nM) by replicate,"mean, log10 nM"
S25L+Q27G+V29E+W56N,-0.19 / -0.06 / -0.26 / -0.44 / 0.12 / -0.15,-0.16
S25I+S26Y+V29G+L30P+W56S,0.64 / 0.42 / 1.01 / 0.13 / 0.44 / 0.62,0.54
S25L+S26A+Q27G+V29Q+W56N+H98R,-0.17 / -0.01 / 0.26 / 0.86 / -0.56 / 0.28,0.11
S25V+S33W+W56D,-0.02 / -0.29 / -0.18 / -0.55 / -0.24 / -0.05,-0.22
Q27F+W56K+Q96T,nd / 2.02 / nd / nd / 2.01 / nd,2.01

Of ten entries with the parent sequence, four were seen in most replicates (averages 0.34 to 2.37), three in one and three in none, so single entries are noisy. The range of this assay differs from that of the first round, and the authors advise against merging the two. As a blank, each scFv also met three strains without target: over all light chain designs, 4% of these pairings were detected, typically at 2.64 and seldom below 1.59.